Test results taken from ChEMBL document CHEMBL5390243, “Catecholamine Derivatives: Natural Occurrence, Structural Diversity, and Biological Activity” (J Nat Prod, 2023).

Target: T1, Peroxisome proliferator-activated receptor alpha (Homo sapiens) (UniProt Q07869)
T1 sequence (whole entry): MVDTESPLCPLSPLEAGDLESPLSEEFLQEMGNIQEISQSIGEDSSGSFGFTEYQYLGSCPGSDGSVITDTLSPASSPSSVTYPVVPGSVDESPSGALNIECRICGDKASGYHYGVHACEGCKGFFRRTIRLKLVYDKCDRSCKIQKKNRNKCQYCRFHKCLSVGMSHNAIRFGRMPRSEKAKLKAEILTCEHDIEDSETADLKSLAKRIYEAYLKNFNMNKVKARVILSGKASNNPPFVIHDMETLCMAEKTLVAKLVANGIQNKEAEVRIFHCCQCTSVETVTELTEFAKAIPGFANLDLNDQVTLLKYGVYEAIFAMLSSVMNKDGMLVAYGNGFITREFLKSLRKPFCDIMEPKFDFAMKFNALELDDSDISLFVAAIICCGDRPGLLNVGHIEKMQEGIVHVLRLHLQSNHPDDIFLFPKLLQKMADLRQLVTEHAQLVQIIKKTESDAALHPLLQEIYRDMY
Experiment: Activation of PPARalpha (unknown origin) expressed in human HepG2 cells assessed as fold change at 12.5 to 50 ug/ml incubated for 24 hrs by luciferase assay
Format: cell-based
Conditions: filed as activator, dose 12.5-50 µg/ml

fold change (FC): 1.06
SMILES: O=C1c2cc(O)c(O)cc2CCn2cccc21
